Biological target: Melanocyte-stimulating hormone receptor (Mus musculus, UniProt Q01727)
Test: Agonist activity at mouse MC1R expressed in HEK293 cells by CRE/beta-galactosidase reporter gene assay
Format: functional, cell-based

Amino acid sequences for entries named in this document (tags omitted). A change or cut given only in a name is not applied to a line headed by its entry.
UniProt Q01727: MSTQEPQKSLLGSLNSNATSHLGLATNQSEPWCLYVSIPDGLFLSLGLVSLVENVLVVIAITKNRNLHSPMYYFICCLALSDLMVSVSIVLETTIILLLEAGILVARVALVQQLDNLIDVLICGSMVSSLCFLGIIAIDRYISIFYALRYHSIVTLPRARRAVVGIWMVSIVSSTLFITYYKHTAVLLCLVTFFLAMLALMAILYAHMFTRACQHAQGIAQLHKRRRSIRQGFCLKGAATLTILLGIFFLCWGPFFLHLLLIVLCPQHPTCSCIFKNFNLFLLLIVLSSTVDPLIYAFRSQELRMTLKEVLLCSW

EC50: 112 nM
SMILES: CC(=O)N[C@@H](Cc1cnc[nH]1)C(=O)N[C@H](Cc1ccccc1)C(=O)N[C@@H](CCCN=C(N)N)C(=O)N[C@@H](Cc1c[nH]c2ccccc12)C(N)=O
